Assay outcomes from PubChem.
Rango-impB inh = qHTS Assay for Inhibitors of Rango (Ran-regulated importin-beta cargo) - Importin beta complex formation; Importin subunit beta-1 (Homo sapiens), Q14974; AID 540263, 2011; hit rate 0.031% among 340,000; Rango CFP/YFP FRET sensor + importin beta, 45 min; Potency, µM (titrated, usually from 92.2 µM), for inactives: at the top dose inhibition of complex formation;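 further: potency means the concentration at half of the fitted maximal effect; 0% = DMSO wells and 100% = buffer wells lacking importin beta; nearly all actives have a fitted effect of over 15% in size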
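Inhibition scored from the CFP 486 nm/YFP 530 nm FRET ratio 45 min after adding 0.125 microM importin beta to 50 nM Rango biosensor preincubated 5 min with compound (room temperature, PBS with DTT, Tween-20, BSA). No-importin wells as positive control.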
p53 reactivation = qHTS assay for re-activators of p53 using a Luc reporter; Potency, µM (top dose mostly 92.2 µM), for inactives: at the highest dose activity change, positive = activation, hits mostly activators; hit rate 0.063% among 320,000; H1299 p53-A138V BP100-luciferase reporter, luminescence, 24 h; AID 504706, 2011; active means well fitted activation curve with a large enough effect; inconclusive means small, poorly fitted or top-dose-only effect; inactive means no such curve, though single readings can be large or run the other way; further: potency means the concentration at half of the fitted maximal effect; % of control where 0% means no effect; nearly all actives have a fitted effect of over 45% in size
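p53-null H1299 cells stably carrying temperature-sensitive p53-A138V and a BP100-luciferase reporter were pinned with compounds (4-point, 1:5 series) and held 24 hrs at 37 deg C. Luminescence was read 10 min after detection reagent.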
Rango dissoc inh = qHTS Assay for Inhibitors of RanGTP induced Rango (Ran-regulated importin-beta cargo) - Importin beta complex dissociation. Potency, µM (titrated, usually from 46.1 µM), for inactives: at the top dose activity change, negative = inhibition. Snurportin-1 (Homo sapiens) + GTP-binding nuclear protein Ran (Homo sapiens) + Importin …. AID 540253, 2011. hit rate 0.071% among 340,000. Biochemical FRET Rango-importin beta, RanGTP-induced dissociation; further: potency means the concentration at half of the fitted maximal effect; % of control where 0% means no effect; nearly all actives have a fitted effect of over 45% in size
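Rango (0.1 uM)–importin beta (0.25 uM) complex; RanGTP-RCC1 trigger; 45 min RT; CFP/YFP FRET read.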
pAkt inh = HTS Assay for Inhibitors of Akt Phophorylation: Primary Screen | Neuro2A IGF-stimulated pAkt S473 HTRF, 20 min; stronger effect = lower value | activity change, % for hits at 50 µM | hit rate 0.32% among 360,000; in the data active means activity change below about -80%; inconclusive means mostly about -51% to -80%; further: on the % scale 0 is the no-effect control and ±100 the full control effect
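Neuro2A cells (4,500/well, DMEM with 0.5% FBS) were treated with compound at a single 50 µM final concentration, stimulated with 6 nM IGF for 20 min at 37 °C, and lysed. Phospho-Akt Ser473 was read by HTRF as 665/615 ratio ×10^4.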
TSHR antagonist = Antagonists of the Thyroid Stimulating Hormone Receptor: HTS campaign; Thyrotropin receptor (Homo sapiens), P16473; TSHR-expressing cells, TSH-stimulated cAMP HTRF, 2 h; stronger effect = lower value; activity change, negative = inhibition, % at 11.5 µM; hit rate 0.2% among 330,000;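 active means activity change below a set negative limit, meaning inhibition stronger than a set level, cut at about -70% in these data; inconclusive means activity change between two set negative limits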; further: on the % scale 0 is the no-effect control and ±100 the full control effect
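Inhibition of cAMP made by TSHR-expressing cells under TSH stimulation (4nM final, EC80; 2 h, 37 deg C) is quantified with a one-step lysis HTRF kit, anti-cAMP cryptate versus cAMP-d2.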
* = called active by the depositor; i = inactive; u = inconclusive; x = not tested or not shown. Only some compounds are listed: those with a hit (about 0.62% of all), similar ones and a draw of the others. Unless noted, the call rests on the fitted dose curve.

Sequences of proteins named here, by UniProt entry; tags and fusion partners are left off.
Importin subunit beta-1 (Homo sapiens), Q14974, UniProt Q14974, whole entry, looked up: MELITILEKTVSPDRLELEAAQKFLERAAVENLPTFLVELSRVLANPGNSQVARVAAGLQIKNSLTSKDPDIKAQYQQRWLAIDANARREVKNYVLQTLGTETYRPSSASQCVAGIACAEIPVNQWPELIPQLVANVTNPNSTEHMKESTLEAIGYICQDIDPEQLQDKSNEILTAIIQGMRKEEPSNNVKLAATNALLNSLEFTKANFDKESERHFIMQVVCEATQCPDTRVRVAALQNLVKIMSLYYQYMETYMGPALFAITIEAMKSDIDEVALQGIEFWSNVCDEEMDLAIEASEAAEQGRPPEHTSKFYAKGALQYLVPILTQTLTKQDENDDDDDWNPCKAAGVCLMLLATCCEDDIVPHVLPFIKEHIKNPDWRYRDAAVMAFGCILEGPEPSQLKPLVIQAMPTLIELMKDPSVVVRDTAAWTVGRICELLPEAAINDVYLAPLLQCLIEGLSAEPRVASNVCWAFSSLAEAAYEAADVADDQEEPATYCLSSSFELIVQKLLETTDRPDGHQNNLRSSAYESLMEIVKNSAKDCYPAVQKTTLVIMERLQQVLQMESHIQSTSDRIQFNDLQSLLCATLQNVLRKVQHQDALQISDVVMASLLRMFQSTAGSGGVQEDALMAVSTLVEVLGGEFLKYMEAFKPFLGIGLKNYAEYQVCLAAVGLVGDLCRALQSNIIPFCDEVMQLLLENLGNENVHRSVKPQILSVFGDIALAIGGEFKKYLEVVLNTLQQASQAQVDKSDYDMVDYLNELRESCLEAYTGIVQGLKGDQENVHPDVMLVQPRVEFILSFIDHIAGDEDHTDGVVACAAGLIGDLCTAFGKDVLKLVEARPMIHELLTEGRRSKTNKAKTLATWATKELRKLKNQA
Thyrotropin receptor (Homo sapiens), P16473, UniProt P16473, whole entry, looked up: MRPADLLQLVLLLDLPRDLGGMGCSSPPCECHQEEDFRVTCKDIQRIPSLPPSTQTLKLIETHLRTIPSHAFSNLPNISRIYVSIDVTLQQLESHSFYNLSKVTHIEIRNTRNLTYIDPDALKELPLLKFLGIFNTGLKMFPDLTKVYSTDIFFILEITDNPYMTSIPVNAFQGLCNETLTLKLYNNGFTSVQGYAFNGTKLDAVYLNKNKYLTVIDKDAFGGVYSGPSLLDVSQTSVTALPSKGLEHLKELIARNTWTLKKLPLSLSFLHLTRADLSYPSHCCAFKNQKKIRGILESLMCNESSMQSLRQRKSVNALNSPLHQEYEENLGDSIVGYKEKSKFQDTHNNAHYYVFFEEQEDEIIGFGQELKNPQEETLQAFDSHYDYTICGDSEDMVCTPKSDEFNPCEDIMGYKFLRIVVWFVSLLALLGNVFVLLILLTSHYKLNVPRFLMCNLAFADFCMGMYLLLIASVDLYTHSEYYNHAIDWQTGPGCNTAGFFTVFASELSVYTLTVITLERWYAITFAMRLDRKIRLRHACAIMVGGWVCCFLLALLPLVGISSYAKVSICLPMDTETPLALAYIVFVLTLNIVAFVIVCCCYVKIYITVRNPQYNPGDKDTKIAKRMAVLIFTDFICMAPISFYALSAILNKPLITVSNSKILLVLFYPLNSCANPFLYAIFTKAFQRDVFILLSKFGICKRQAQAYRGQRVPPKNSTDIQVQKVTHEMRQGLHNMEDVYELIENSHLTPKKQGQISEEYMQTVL

Letters – A = Rango-impB inh; B = p53 reactivation; C = Rango dissoc inh; D = pAkt inh; E = TSHR antagonist
> CCN(CC)CCCn1c2c(c(SCC(=O)Nc3nc4ccccc4s3)nc1=O)CCC2
  A: 2% | B: -5% | C: 14% | D: i | E: -4
> Cc1ccc(N(CC(O)CN2CCCCC2)S(=O)(=O)c2ccc(C)cc2)cc1 (configuration not stated)
  A: 0% | B: 0% | C: 10% | D: i | E: 9
> CC1CN(C(=O)COc2ncnc3ccccc23)CC(C)O1 (configuration not stated)
  A: 1% | B: -11% | C: -5% | D: -105%* | E: 6
> O=S(=O)(Nc1ccccc1N1CCCCC1)c1ccc(F)cc1
  A: 0% | B: 3% | C: 1% | D: i | E: -5
> CCOC(=O)c1nn(C23CC4CC(CC(C4)C2)C3)c2c1C(=O)N(c1ccc(C)cc1)C2=O
  A: -1% | B: 10% | C: -8% | D: -110%* | E: 10
> COC(=O)c1nn(C23CC4CC(CC(C4)C2)C3)c2c1C(=O)N(c1ccc(Br)cc1)C2=O
  A: -2% | B: 6% | C: -3% | D: i | E: 7
> CCOC(=O)C(NC(=O)c1ccccc1)(Nc1cc(C)on1)C(F)(F)F (configuration not stated)
  A: -2% | B: -5% | C: -1% | D: -129%* | E: 27
> O=C(O)CCSCC(=O)Nc1c(C(=O)C2CC2)oc2ccccc12
  A: 0% | B: 0% | C: -4% | D: -100%* | E: -4
> O=C(CN1CCN(c2ccccc2)CC1)Nc1c(C(=O)C2CC2)oc2ccccc12
  A: -1% | B: -1% | C: -7% | D: i | E: -2
> CCCNc1nc(Nc2ccc(C)cc2)nc(N2CCCC2)n1
  A: 46µM* | B: 2% | C: -20% | D: i | E: -1
> COc1ccc(Nc2nc(NCCO)nc(N3CCCC3)n2)cc1
  A: -1% | B: x | C: -10% | D: x | E: x
> Cc1cccc(NC(=O)c2ccccc2NC(=O)c2ccccc2)n1
  A: -1% | B: 2% | C: 15% | D: i | E: 3
> O=C(COC(=O)C1COc2ccccc2O1)NC1CCCCC1 (configuration not stated)
  A: -1% | B: 9% | C: -6% | D: i | E: -6
> O=C(COC(=O)C1COc2ccccc2O1)NC(=O)NC1CCCC1 (configuration not stated)
  A: 2% | B: 4% | C: 2% | D: -98%* | E: -1
> CCN(CC)c1ccc(C(=O)OCC(=O)N2CCCC2)cc1
  A: 2% | B: 4% | C: -11% | D: i | E: -111*
> O=Cc1ccc(C(=O)OCC(=O)N2CCCC2)cc1
  A: -2% | B: 7% | C: 24% | D: i | E: -9
> Cc1cc(N2CCOCC2)nc(NCc2ccccc2)n1
  A: -4% | B: 23% | C: 14% | D: i | E: 1
> Cc1cc(NCc2ccccc2)nc(N2CCOCC2)n1
  A: 2% | B: 1% | C: -12% | D: -113%* | E: -2
> O=C(C1CCC1)N1CCN(S(=O)(=O)c2cc(F)ccc2F)CC1
  A: 2% | B: 0% | C: 11% | D: i | E: -5
> C[C@@H]1CN([C@@H](C)CO)C(=O)c2cc(Br)cnc2O[C@H]1CN(C)C(=O)c1ccc2c(c1)OCO2
  A: x | B: x | C: x | D: i | E: x
> Cc1ccsc1/C=C/c1ccc2ccccc2n1
  A: u | B: 13% | C: -24% | D: i | E: -3
> Cc1ccsc1/C=C/c1ccc2cccc(O)c2n1
  A: -4% | B: 40µM* | C: 27% | D: i | E: -5
> COc1cc(OCc2ccccc2)c2c(CCC(=O)O)cc(=O)oc2c1
  A: 0% | B: x | C: 1% | D: i | E: x
> CCc1cc(=O)oc2cc(OC(C)=O)cc(OC(C)=O)c12
  A: u | B: -8% | C: 12µM* | D: i | E: 11
> Fc1ccc(CN2CCCCCC2)c(F)c1
  A: 1% | B: -5% | C: -9% | D: i | E: 8
> Fc1ccccc1CN1CCCCCCC1
  A: 4% | B: -4% | C: 3% | D: -104%* | E: 12
> CCc1ccc(C2C(C#N)=C(N)SC(N)=C2C#N)s1
  A: u | B: 17% | C: 10µM* | D: i | E: -9
> CC(=O)Nc1cc(OC(C)=O)c2nonc2c1OC(C)=O
  A: 5% | B: -33% | C: -9% | D: x | E: -74*
> Cc1cccc(N2CCN(C3=NC(=O)C(Cc4ccccc4)S3)CC2)c1 (configuration not stated)
  A: -2% | B: -5% | C: 3% | D: i | E: -5
> CC(=O)Nc1ccccc1-c1nn[nH]n1
  A: 1% | B: -2% | C: -3% | D: -101%* | E: 3
> CC(=O)Nc1cccc(-c2nn[nH]n2)c1
  A: 0% | B: 1% | C: 12% | D: i | E: 0
> Cc1[nH]n(-c2ccc([N+](=O)[O-])cc2)c(=O)c1C=NCCN1CCN(C(=O)c2ccc(Br)cc2)CC1
  A: 1% | B: 1% | C: 4% | D: -102%* | E: -7
> O=S(=O)(Nc1ccc(O)c(Sc2nc3ccccc3s2)c1)c1ccc(F)cc1
  A: 2% | B: -2% | C: 4% | D: i | E: -15
> O=S(=O)(Nc1ccc(O)c(Sc2nc3ccccc3s2)c1)c1cccc2ccccc12
  A: 8% | B: -1% | C: 3% | D: i | E: -88*
> Cc1cccc(-c2noc(CN(C)C(=O)c3ccco3)n2)c1
  A: 4% | B: 13% | C: -2% | D: i | E: -100*
> Cc1cccc(-c2noc(CN(C)C(=O)c3ccoc3C)n2)c1
  A: -1% | B: 9% | C: 11% | D: i | E: -12
> CC(C)Cc1nnc(NC(=O)CSc2nc(=O)cc(N)n2-c2ccccc2)s1
  A: -3% | B: 1% | C: -15% | D: -114%* | E: -1
> Nc1cc(=O)nc(SCC(=O)Nc2ccccc2)n1-c1ccccc1
  A: 0% | B: -6% | C: 17% | D: i | E: -5
> COc1ccccc1N1C(=O)c2cccc3c(Cl)ccc(c23)C1=O
  A: 0% | B: -6% | C: -10% | D: i | E: -98*
> CN1C(=O)c2cccc3c(Cl)ccc(c23)C1=O
  A: -1% | B: -2% | C: 18% | D: i | E: -8
> Cc1ccc(S(=O)(=O)NCC2CCC(C(=O)NCc3ccc4c(c3)OCO4)CC2)cc1 (configuration not stated)
  A: -4% | B: -5% | C: -3% | D: i | E: 1
> Cc1ccc(S(=O)(=O)NC(=O)NCc2ccc3c(c2)OCO3)cc1
  A: -1% | B: 18% | C: -18% | D: -111%* | E: 0
> Cc1cc(C)n(C(=O)CNc2ccccc2Cl)n1
  A: 0% | B: 25% | C: 0% | D: -127%* | E: 7
> CN(C)C(=O)c1cc(C(=O)c2ccc(C(F)(F)F)cc2)c[nH]1
  A: 0% | B: 17% | C: 14% | D: i | E: 0
> Cc1ccc(NC(=O)COC(=O)CC2SC(N3CCCC3)=NC2=O)cc1 (configuration not stated)
  A: 0% | B: 3% | C: 1% | D: i | E: 3
> O=S(=O)(NCC1CC1)c1cccc(S(=O)(=O)N2CCCC2)c1
  A: -2% | B: 0% | C: 7% | D: -112%* | E: -5
> Cc1ccccc1CSCCNS(C)(=O)=O
  A: 0% | B: -1% | C: 0% | D: i | E: 18
> COc1ccc(S(=O)(=O)NCCSCc2ccccc2C)cc1Br
  A: 8% | B: 1% | C: 0% | D: -114%* | E: 1

Some entries already given, showing only Rango-impB inh and pAkt inh:
canonical_smiles | Rango-impB inh | pAkt inh
CN1C(=O)c2cccc3c(Cl)ccc(c23)C1=O | -1% | i
CC(=O)Nc1cc(OC(C)=O)c2nonc2c1OC(C)=O | 5% | x
COc1ccccc1N1C(=O)c2cccc3c(Cl)ccc(c23)C1=O | 0% | i
CC(=O)Nc1cccc(-c2nn[nH]n2)c1 | 0% | i
